Source: paper PMC4306681

Target: human ApoB-100 (human) (UniProt P04114)
Experiment: SPR; Biacore T200, C1 chip; ApoB-100 captured by amine-coupled monoclonal anti-ApoB antibody (30-35 RU); Flag-tagged DII injected, 1.3–20 nM; 25°C; 20 mM HEPES pH 6.0, 10 mM NaCl, 0.2 mg/ml BSA; 1:1 model (kinetic fit; KD of Fig. 2D from steady state)

“Flag-tagged secreted perlecan DII (from UniProt P98160 22-4391) (domain or fragment)” showed a Kd of 4.1 nM, a koff of 0.027 s⁻¹ and a kon of 5.9e+06 M⁻¹ s⁻¹.
